System: THP-1
Assay: Effective dose against monocyte chemoattractant protein-1(MCP-1) induced leukocyte migration of THP-1 cells
Type: functional
Conditions: Homo sapiens, read-out: ED50 (the source's name)
Outline: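 Trans-well microtiter migration of human myelomonocytic THP-1 cells toward 25 ng/mL MCP-1 in Gey's balanced salt solution with 1 mg/mL endotoxin-free BSA, no fetal calf serum, 2 h at 37 °C. Compound is in both compartments, DMSO 1% final, tested up to 100 μM. Migrated cells are counted by MTT as % of vehicle-only migration. ED50 is the concentration giving 50% reduction; triplicate determinations.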

EC50: 4 µM
Structure (SMILES): CC(C)[C@H](NC(=O)[C@@H](N)Cc1c[nH]c2ccccc12)C(=O)N[C@@H](CCC(N)=O)C(=O)O

Reference: ChEMBL document CHEMBL1135803, “Design, synthesis, and preliminary pharmacological evaluation of N-acyl-3-aminoglutarimides as broad-spectrum chemokine inhibitors in vitro and anti-inflammatory agents in vivo” (2002)
